Source: patent US7238720B2, “Pharmaceutical use of N-carbamoylazole derivatives” (Eisai R & D Management Co. Ltd., priority 2001, dated 2007)

The chains behind the UniProt entries cited, without tags or fusion partners.
UniProt P22411, whole entry: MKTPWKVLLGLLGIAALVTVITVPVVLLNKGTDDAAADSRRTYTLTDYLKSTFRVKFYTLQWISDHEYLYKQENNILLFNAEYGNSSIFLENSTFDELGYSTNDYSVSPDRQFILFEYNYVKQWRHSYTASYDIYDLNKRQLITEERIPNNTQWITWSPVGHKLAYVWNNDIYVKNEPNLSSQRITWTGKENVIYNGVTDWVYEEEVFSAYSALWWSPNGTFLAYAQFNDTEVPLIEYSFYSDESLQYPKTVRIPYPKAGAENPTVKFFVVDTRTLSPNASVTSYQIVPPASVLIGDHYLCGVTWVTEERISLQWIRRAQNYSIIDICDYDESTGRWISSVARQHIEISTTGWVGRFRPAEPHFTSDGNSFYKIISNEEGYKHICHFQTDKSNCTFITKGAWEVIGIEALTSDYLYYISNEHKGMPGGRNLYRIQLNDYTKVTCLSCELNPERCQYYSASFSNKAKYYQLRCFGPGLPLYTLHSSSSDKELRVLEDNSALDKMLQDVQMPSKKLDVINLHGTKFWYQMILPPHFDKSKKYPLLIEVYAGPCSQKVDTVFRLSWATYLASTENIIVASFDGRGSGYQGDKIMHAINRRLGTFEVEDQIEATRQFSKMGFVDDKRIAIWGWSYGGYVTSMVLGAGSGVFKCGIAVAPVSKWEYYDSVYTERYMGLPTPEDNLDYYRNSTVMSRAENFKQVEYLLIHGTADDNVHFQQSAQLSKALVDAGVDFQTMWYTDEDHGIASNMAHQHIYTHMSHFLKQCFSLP

Target: DPP-IV, obtained from porcine kidneys (Sus scrofa, UniProt P22411)
Assay: Measurement of DPPIV inhibiting effects (Gly-Pro-p-nitroanilide, absorbance at 405 nm)
Assay type: biochemical
Details: porcine kidney DPP-IV 10 mU/mL, 20 min preincubation, Gly-Pro-p-nitroanilide 0.33 mM, pH 7.4

Compound: Cc1cccc(OCC(F)(F)F)c1Sc1ncn(C(=O)N(C)C)n1
- IC50: 2100 nM
